Results: US7923473B2, “Aromatic compounds and their use in medical applications” (Revotar Biopharmaceuticals AG, priority 2005, dated 2011)

Protein sequences, listed by entry. Tags and fused reporters are not part of them. Lines headed by an entry give the natural chain unless they say otherwise; changes in a name come on top. Chains listed by the source or under a name are the forms on record and can include a tag or linker.
UniProt P16581, with tags, fused parts or gaps limits assumed: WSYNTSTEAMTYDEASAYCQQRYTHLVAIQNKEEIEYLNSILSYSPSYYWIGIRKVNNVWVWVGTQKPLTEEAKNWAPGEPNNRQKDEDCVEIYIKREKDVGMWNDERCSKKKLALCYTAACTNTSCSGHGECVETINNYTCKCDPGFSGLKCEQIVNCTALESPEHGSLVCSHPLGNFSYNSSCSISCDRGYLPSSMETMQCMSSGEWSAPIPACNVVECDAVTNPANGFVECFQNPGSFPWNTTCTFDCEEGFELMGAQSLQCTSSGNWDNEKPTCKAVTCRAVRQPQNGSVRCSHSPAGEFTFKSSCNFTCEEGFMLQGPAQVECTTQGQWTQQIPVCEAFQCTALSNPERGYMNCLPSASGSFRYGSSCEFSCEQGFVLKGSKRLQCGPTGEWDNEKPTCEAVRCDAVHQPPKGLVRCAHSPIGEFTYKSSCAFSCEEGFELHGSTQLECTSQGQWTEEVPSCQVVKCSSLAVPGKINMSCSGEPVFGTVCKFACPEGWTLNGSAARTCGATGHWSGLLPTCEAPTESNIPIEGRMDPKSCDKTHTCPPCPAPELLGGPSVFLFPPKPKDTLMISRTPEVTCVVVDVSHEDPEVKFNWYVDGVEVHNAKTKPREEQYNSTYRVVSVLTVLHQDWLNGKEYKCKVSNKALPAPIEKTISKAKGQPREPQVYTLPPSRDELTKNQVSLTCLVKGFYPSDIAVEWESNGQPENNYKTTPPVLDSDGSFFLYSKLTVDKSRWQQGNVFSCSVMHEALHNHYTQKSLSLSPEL

Biological target: human E-Selectin-IgG-chimera (Homo sapiens, UniProt P16581)
Experiment: Sialyl Lewis^x Tyrosine Sulfate Assay (sLe^x TSA), E-selectin
Conditions: inhibition of binding of selectin chimera to sLe^x-tyrosine sulfate polyacrylamide ligand complex
Description: Compounds of the present invention are assayed on a molecular level for their ability to inhibit the binding of P-, L-, or E-selectin chimeric molecules to sLe^x and tyrosinesulfate residues linked to a polymeric matrix as a PSGL-1 substitute. IC50-values are determined.
Microtiter plates are coated overnight in carbonate buffer pH9.6 with goat anti human Fc mAB (10 μg/ml). After washing in assay buffer (25 mM 4-(2-hydroxyethyl)-1-piperazineethanesulfonic acid (HEPES), 150 mM NaCl, 1 mM CaCl2 pH7.4) and blocking (3% bovine serum albumin (BSA) in assay buffer) plates are incubated for 2 h at 37° C. with human P-Selectin-IgG-chimera (0.61 nM respectively 150 ng/mL) or human L-Selectin-IgG-chimera (0.61 nM respectively 89 ng/mL) or human E-Selectin-IgG-chimera (0.61 nM respectively 131 ng/mL). 5 μl of sLe^x-tyrosine sulfate polyacrylamide (1 mg/ml) carrying 15% sLe^x, 10% Tyrosine-sulfate and 5% biotin is complexed with 20 μl Streptavidin-Peroxidase solution (1 mg/ml) and 25 μl assay buffer without CaCl2. For use in the assay, the ligand complex is diluted 1:10000 in assay buffer and further diluted 1:1 with varying amounts of compounds in assay buffer incl. 2% DMSO. […] Bound sLe^x-Tyrosine sulfate ligand complex is determined by measuring optical density at 450 nm vs. 620 nm in a Fusion alpha-FP reader (sold from Packard Bioscience, Dreieich, Germany).

IC50: > 500 µM
SMILES: O=C(O)Cc1cccc(-c2cc(CCCCCCc3ccc(O[C@H]4O[C@H](CO)[C@@H](O)[C@H](O)[C@@H]4O)c(-c4cccc(CC(=O)O)c4)c3)ccc2O[C@H]2O[C@H](CO)[C@@H](O)[C@H](O)[C@@H]2O)c1 [Bimosiamose, bimosiamose, reference compound]
